Data as given in publication PMC7918793, “5-Methoxybenzothiophene-2-Carboxamides as Inhibitors of Clk1/4: Optimization of Selectivity and Cellular Potency” (Molecules, 2021).

The chains behind the UniProt entries cited, without tags or fusion partners. Where a name states a change or a piece, a line headed by the entry shows the natural chain unless it says otherwise.
UniProt P49759: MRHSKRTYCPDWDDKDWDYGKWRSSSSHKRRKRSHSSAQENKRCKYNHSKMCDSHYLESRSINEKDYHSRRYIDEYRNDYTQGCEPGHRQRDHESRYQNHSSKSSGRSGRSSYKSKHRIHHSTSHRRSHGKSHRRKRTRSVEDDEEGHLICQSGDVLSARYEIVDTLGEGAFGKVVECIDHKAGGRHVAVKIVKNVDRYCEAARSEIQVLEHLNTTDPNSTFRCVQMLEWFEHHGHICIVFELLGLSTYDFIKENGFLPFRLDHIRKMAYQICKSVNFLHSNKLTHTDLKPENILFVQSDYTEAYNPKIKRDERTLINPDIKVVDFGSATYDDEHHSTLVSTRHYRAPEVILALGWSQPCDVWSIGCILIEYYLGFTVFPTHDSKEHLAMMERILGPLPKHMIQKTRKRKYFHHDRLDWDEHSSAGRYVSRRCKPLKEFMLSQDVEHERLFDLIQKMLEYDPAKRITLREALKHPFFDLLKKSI

Target: Clk1 (Homo sapiens, UniProt P49759)
Experiment: Clk1 kinase inhibition assay (15 μM ATP)
Type: biochemical
Parameters: purchased Life Technologies PV3315
Settings: ratio of Clk2 and Clk1 IC50
From the text: Active human Clk1 and Clk2 were purchased from Life Technologies (Catalog No. PV3315 and PV4279, respectively). RS repeat substrate peptide for Clk1 ([…]) was custom synthesized at the Department of Medical Biochemistry and Molecular Biology, Saarland University, Homburg, Germany. […] The larger panel of kinases shown in Table 4 was screened by the SelectScreen Kinase Profiling Service, Thermo Fisher Scientific, Paisley, UK.

COc1ccc2sc(C(=O)N(C)Cc3cccc(F)c3)cc2c1 [Compound 1b, N-Methyl-N-(3-fluorobenzyl)-5-methoxybenzothiophene-2-carboxamide]
Selectivity Factor for Clk1 over Clk2: 2.7
